PGC1a acetyl inh = PGC1a acetylation modulation, inhibitor mode; U2OS PGC1a acetylation, AlphaScreen anti-acetyl-lysine; with virally co-expressed GCN5 acetyltransferase; inhibition, % at 15.6 µM; hit rate 0.17% among 350,000; AID 651687;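 active = every replicate shows inhibition of at least 40%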
E-selectin induc = induces E-selectin expression in human endothelial cells; HUVEC E-selectin immunofluorescence imaging; normalized: neutral wells 0, TNF-alpha wells 100; activation, % at 7.58 µM; hit rate 0.37% among 260,000;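 active = mean E-selectin-positive cell signal at least 10% of the positive control, reached in at least 60% of replicates, without over 20% cell loss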
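Test system: HUVEC; input: 3,000 HUVEC/well; measured by: immunofluorescence imaging; read-out: % PE-positive cells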
C2C12 statin = protects C2C12 myotubes from simvastatin toxicity; ATP luminescence, 48 h; scaled: DMSO 0, geranylgeraniol control 100; rescue of ATP level, % at 7.49 µM; hit rate 0.78% among 330,000; AID 602340;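 active = mean ATP rescue above about 67%, or every replicate alone reaching that limit, limit read from the data, passing the limit was not always enough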;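 note: myotubes were challenged with 10 µM simvastatin during compound exposure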
esBAF inh = inhibitors of esBAF chromatin remodeling in mouse ES cells | AID 602393 | reporter increase, % at 12.5 µM | hit rate 2% among 350,000 | Bmi1-luciferase knock-in reporter, 24 h; 100% = twice the neutral-well signal; in the data active = activation above about 40%;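 note: a rise in the Bmi1 reporter signal indicates esBAF inhibition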
Yeast UUG start = modulators of yeast start codon fidelity, primary screen, whole organism, S. cerevisiae, single point, plate reader; S. cerevisiae UUG-firefly luciferase reporter, luminescence/redox ratio; activity score, % at 18.7 µM; 0.13% of 350,000 active; AID 602363, 2012;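 active = replicate mean at a twofold rise or more, about +100% in these data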;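 also: firefly luciferase made from a UUG start codon reports start codon fidelity; reporter light over untreated wells divided by growth signal over untreated wells; some hits fall short of that in this replicate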
PglD inh = blocks C. jejuni PglD acetyltransferase activity; hit rate 0.098% among 360,000; purified PglD enzyme, DTNB colorimetric CoA detection; inhibition, % at 12.5 µM; in the data active = inhibition above about 16%, passing the limit was not always enough
Large screens that a line does not name were inactive. A selection: hits, their analogues and other compounds. The true share with any hit is near 2.8%.

Cc1cccc(C)c1Nc1nnc(SCc2cc([N+](=O)[O-])cc3c2OCOC3)s1	C2C12 statin 244 (no result: E-selectin induc)
N#C/C(C(=O)NCc1ccccc1)=C1/N=C(NC(=O)c2ccco2)c2ccccc21	esBAF inh 47 (no result: E-selectin induc)
O=C(NCc1ccccn1)c1cc(-c2ccc(-c3ccccc3)cc2)nc2ccccc12	esBAF inh 45 (no result: Yeast UUG start, PglD inh)
O=C(NCc1ccccn1)c1ccc(Cl)cc1Cl	esBAF inh 52 (no result: E-selectin induc, Yeast UUG start, PglD inh)
Cc1cccc(-c2cc(C(=O)NCc3ccccn3)c3ccccc3n2)c1	none (no result: PGC1a acetyl inh, C2C12 statin, esBAF inh, Yeast UUG start, PglD inh)
COCCNC(=O)c1cc(-c2ccc(-c3ccccc3)cc2)nc2ccccc12	esBAF inh 47 (no result: E-selectin induc)
Cc1ccc(-c2cc(C(=O)NCc3ccccn3)c3ccccc3n2)cc1C	esBAF inh 48 (no result: PGC1a acetyl inh, E-selectin induc)
O=C(NCCCNC(=O)c1ccc(Cl)cc1Cl)c1ccccn1	none (no result: PGC1a acetyl inh)
COCCCNC(=O)c1cc(-c2cccnc2)nc2ccccc12	none (no result: PGC1a acetyl inh, E-selectin induc)
COCC(=O)N(C)C[C@H]1Oc2ncc(C3=CCCCC3)cc2C(=O)N([C@@H](C)CO)C[C@@H]1C	none
Cc1ccc(C2=CSC3=NNC4(CCCCC4)NN23)cc1	esBAF inh 66
CO[C@@H]1CN(C)C(=O)c2cc(NC(C)=O)ccc2OC[C@@H](C)N(C(=O)c2ccccn2)C[C@H]1C	none
C[C@@H]1CN([C@H](C)CO)C(=O)c2cc(NC(=O)CCC(F)(F)F)ccc2O[C@@H](C)CCCCO[C@@H]1CN(C)C(=O)CCC(F)(F)F	none (no result: E-selectin induc, C2C12 statin)
N#Cc1nc(-c2ccco2)oc1NCCCn1ccnc1	C2C12 statin 129 (no result: E-selectin induc, Yeast UUG start, PglD inh)
CC(C)(C)c1ccc(-c2nc(C#N)c(NCCCn3ccnc3)o2)cc1	none (no result: E-selectin induc)
C[C@@H]1CN([C@H](C)CO)S(=O)(=O)c2ccc(Br)cc2O[C@H]1CN(C)S(=O)(=O)c1ccccc1	none
Clc1ccccc1-c1csc(Nc2cccnc2)n1	esBAF inh 63
C[C@H]1CN([C@@H](C)CO)C(=O)Cc2cc(NC(=O)Cn3cnnn3)ccc2O[C@@H]1CN(C)C(=O)Nc1ccc2c(c1)OCO2	none
CO[C@@H]1CN(C)C(=O)c2cc(NC(=O)C3CC3)ccc2OC[C@@H](C)N(C)C[C@H]1C	none
Cc1onc(-c2ccncc2)c1C(=O)O	C2C12 statin 106 (no result: E-selectin induc)
C[C@@H]1CN([C@@H](C)CO)C(=O)c2cc(-c3cccc(F)c3)cnc2O[C@@H]1CN(C)Cc1cccc(F)c1	none (no result: PglD inh)
O=C(N[C@H]1CC[C@H](CCNS(=O)(=O)c2ccc(F)cc2)O[C@@H]1CO)c1ccccn1	none
CC(C)C(=O)Nc1nc(-c2ccccc2)ns1	esBAF inh 56 (no result: E-selectin induc)
CC(C)C(=O)Nc1nnc(NC(=S)Nc2ccccc2)s1	esBAF inh 76 (no result: E-selectin induc)
CCC(=O)Nc1nc(-c2ccccc2)ns1	esBAF inh 43 (no result: E-selectin induc)
CCCC(=O)Nc1nc(-c2ccccc2)ns1	none (no result: PGC1a acetyl inh, C2C12 statin, esBAF inh, Yeast UUG start, PglD inh)
O=C(Nc1cc(F)ccc1F)N1[C@@H]2CNC[C@H]1C2c1ccc(-c2ccc(F)cc2)cc1 (stereo partly drawn)	none (no result: C2C12 statin, esBAF inh, Yeast UUG start, PglD inh)
O=C(N[C@@H]1CC[C@@H](CC(=O)N2CCOCC2)O[C@@H]1CO)c1ccccn1	none (no result: Yeast UUG start)
O=C(NC(O)C(=O)c1ccccc1)c1ccccn1 (stereo not drawn)	E-selectin induc 50 (no result: PGC1a acetyl inh)
O=C(NC(O)C(=O)c1ccccc1)c1cccs1 (stereo not drawn)	none (no result: E-selectin induc)
Cc1nc(C(=O)Nc2ccccc2)sc1C(=O)Nc1ccccc1	esBAF inh 54
Cc1nc(N)sc1C(=O)Nc1ccccc1	none (no result: E-selectin induc)
Cc1ccc(NC(=O)c2sc(N)nc2C)cc1	esBAF inh 50
COc1cc(N)c(Cl)cc1C(=O)OCC(=O)NCc1cccs1	E-selectin induc 73
COc1ccc(C(=O)OCC(=O)NCc2cccs2)c(OC)c1OC	none
COC(=O)c1ccccc1SCc1csc(C)n1	none (no result: PGC1a acetyl inh, E-selectin induc)
O=C(O)c1ccccc1SCc1csc(-c2ccccc2)n1	esBAF inh 47
C[C@H](CO)N1C[C@H](C)[C@H](CN(C)S(=O)(=O)c2ccc(F)cc2)Oc2ncc(C#CC(C)(C)O)cc2C1=O	none
Cc1nc(N2CCN(c3ccccc3)CC2)nc2c1C(=O)CCC2	none (no result: PGC1a acetyl inh, E-selectin induc)
Cc1nc(N2CCN(C(=O)c3ccco3)CC2)nc2c1C(=O)CCC2	esBAF inh 41
O=C(NC1Cc2ccccc2C1)[C@H]1N[C@H]2c3ccc(C4=CCCC4)c(=O)n3C[C@H]2[C@@H]1CO	none (no result: PGC1a acetyl inh)
CCC(=O)Nc1ccc2c(c1)OC[C@@H](C)N(Cc1ccccc1OC)C[C@@H](C)[C@H](OC)CN(C)C2=O	none
CN(C)c1ccc(-c2c(-c3ccc4c(c3)OCO4)noc2-c2ccsc2)cn1	none (no result: E-selectin induc)
O=C(O)c1cc(-c2ccc(-c3c(-c4ccc5c(c4)OCO5)noc3-c3ccsc3)cc2)nc2ccccc12	esBAF inh 68
C[C@@H]1CN([C@H](C)CO)S(=O)(=O)c2ccc(C#CC3(O)CCCC3)cc2O[C@@H]1CN(C)C(=O)Cc1ccncc1	none
CCn1cc(C2=NC(C(C)C)CO2)c2ccccc21 (stereo not drawn)	none
CC(C)C1COC(c2cccc3ccccc23)=N1 (stereo not drawn)	esBAF inh 55
O=S(=O)(NCC[C@H]1CC[C@H](NS(=O)(=O)c2cccc(F)c2)[C@@H](CO)O1)c1cccc(F)c1	none (no result: C2C12 statin, esBAF inh, Yeast UUG start, PglD inh)
COc1ccc(-n2c(=O)cc(N3CCN(c4ccccc4)CC3)[nH]c2=O)cc1	none (no result: E-selectin induc)
Cc1cccc(-n2c(=O)cc(N3CCN(c4ccc(F)cc4)CC3)[nH]c2=O)c1	PGC1a acetyl inh 55
C[C@H](CO)N1C[C@H](C)[C@@H](CN(C)CC2CC2)Oc2ccc(NC(=O)CCCN(C)C)cc2C1=O	none
Cc1cc2ncn(/N=C/c3ccc([N+](=O)[O-])o3)c2cc1C	C2C12 statin 87 (no result: E-selectin induc)
Nn1c(SCC(=O)Nc2ccc(F)cc2F)nnc1-c1cccnc1	C2C12 statin 112 (no result: E-selectin induc)
CCOC(=O)C1(CCSC)NC(c2ccco2)C2C(=O)N(CC)C(=O)C21 (stereo not drawn)	C2C12 statin 104 (no result: E-selectin induc)
Cc1ccccc1S(=O)(=O)N1[C@@H]2Cn3c(cccc3=O)[C@H]1[C@@H](C(=O)N1CCOCC1)[C@@H]2CO	none (no result: PGC1a acetyl inh, Yeast UUG start)
Cc1nn2c(-c3ccccc3)nnc2c2ccccc12	esBAF inh 52 (no result: E-selectin induc)
Cc1nn2c(-c3cccc(NC(=O)c4ccco4)c3)nnc2c2ccccc12	none (no result: E-selectin induc)
COc1cccc(C(=O)Nc2ccc3c(c2)C(=O)N(C)C[C@@H](OC)[C@@H](C)CN[C@@H](C)CO3)c1	none (no result: Yeast UUG start)
O=C(C[C@H]1C=C[C@H](NC(=O)Nc2ccc(C(F)(F)F)cc2)[C@H](CO)O1)NCc1cccc(F)c1	none
CN(CC(=O)Nc1ccc(Br)cc1)Cc1ccccc1	E-selectin induc 97
Cc1cccc(NC(=O)CN2C(=O)N/C(=C\c3ccc(N4CCOCC4)cc3)C2=O)c1	esBAF inh 59 (no result: PGC1a acetyl inh, E-selectin induc)
Cc1ccc(S(=O)(=O)NC[C@H]2CC[C@H]3[C@H](CN3Cc3ccccc3C(=O)O)O2)cc1	none (no result: E-selectin induc, C2C12 statin, esBAF inh, Yeast UUG start, PglD inh)

From PubChem BioAssay
